IC90 data for one compound are collected here from PubChem BioAssay AID434955 (Southern Research Specialized Biocontainment Screening …, 2010).

The experiment has as its system M. tuberculosis H37Rv growth with meropenem, percent inhibition. The experiment can be described thus: beta-lactam sensitization of Mtb H37Rv, H37Rv (AID 434955).

On to `CCCCCCCCCCCCCCCC[N+](C)(C)CCN(Cc1ccc(OC)cc1)c1ncccn1`, for which the IC90 (as a rule, the concentration at which the effect reaches the 90% level) is 3.09 µM.
